Hits are enriched below; roughly 1.6% of the tested compounds scored in any of these assays.
Vif inh: inhibitors of HIV Vif. HEK293T cells, Vif self-association by quenched fluorescence, imaging, 24 h. inhibition, % at 7.49 µM. 340,000 compounds, 0.35% hits; in the data active = inhibition above about 50%, passing the limit was not always enough
ARNT-TACC3 inh: disrupts binding between human ARNT and TACC3; Q9Y6A5; 390,000 compounds, 0.66% hits; AlphaScreen His-ARNT PAS-B/GST-TACC3 binding, luminescence; TACC3 fragment carries E629A point mutation; inhibition, % at 9.99 µM;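 active = mean inhibition of replicates at least 50% and at least half of replicates each reaching 50%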;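 note: 0% = complete ARNT plus TACC3 wells and 100% = ARNT alone without TACC3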
Yeast UUG start: yeast start codon fidelity modulation; AID 602363; activity score, % at 18.7 µM; S. cerevisiae UUG-firefly luciferase reporter, luminescence/redox ratio; 0.13% of 350,000 active;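 active means replicate mean at a twofold rise or more, about +100% in these data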;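 further: firefly luciferase made from a UUG start codon reports start codon fidelity; reporter light over untreated wells divided by growth signal over untreated wells; some hits fall short of that in this replicate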
CAL PDZ FP-1: inhibitors of human CAL PDZ peptide binding; Q9HD26; purified CAL PDZ, TMR-peptide fluorescence polarization, 1 h; inhibition, % at 24.9 µM; 300,000 compounds, 0.92% hits;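 active = mean inhibition of at least 30% with at least half of replicates also reaching 30%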;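 note: 0% = DMSO neutral control and 100% = excess unlabeled competitor peptide PRC23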
PglD DTNB: inhibitors of Campylobacter jejuni PglD acetyltransferase; purified PglD enzyme, DTNB colorimetric CoA detection; inhibition, % at 12.5 µM; 360,000 compounds, 0.098% hits; in the data active = inhibition above about 16%, passing the limit was not always enough
CAL PDZ FP-2: human CAL PDZ-peptide interaction inhibition; AID 504414; 330,000 compounds, 0.02% hits; Q9HD26; purified CAL PDZ, TMR-peptide fluorescence polarization, 1 h; inhibition, % at 20 µM;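 active = highest replicate inhibition of at least 40%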;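 note: plate controls were DMSO neutral control wells for no effect and unlabeled competitor peptide control wells for full effect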
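Material: tagged CAL PDZ domain; buffer or medium: 25 mM sodium phosphate pH 7.4, 150 mM NaCl, TCEP, IgG, Thesit; compound dosing: single point, 20 µM; schedule: 1 h incubation at room temperature before polarization reading; measured by: FP readout, S and P plane fluorescence; read-out basis: percent inhibition from loss of millipolarization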
Starred values were filed as active, the others as inactive.

For Cc1ccc(C)c(S(=O)(=O)N2CCCOC2CNC(=O)C(=O)NCCc2ccco2)c1 (stereo not drawn) the results were Vif inh -3.0, ARNT-TACC3 inh -0.9, Yeast UUG start 3.4, CAL PDZ FP-1 68.8*, PglD DTNB -2.6 and CAL PDZ FP-2 1.0.
Screening Cc1ccc(C)c(S(=O)(=O)N2CCCOC2CNC(=O)C(=O)NCc2ccco2)c1 (stereo not drawn) returned Vif inh 2.1, ARNT-TACC3 inh -2.7, CAL PDZ FP-1 -2.8 and CAL PDZ FP-2 0.4.
Screening CNC(=O)C[C@H]1CC[C@@H]2[C@H](COC[C@H](O)CN2S(=O)(=O)c2ccc(Oc3ccccc3)cc2)O1 returned ARNT-TACC3 inh -9.1, Yeast UUG start 15.1 and PglD DTNB -0.9.
Screening O=C(C[C@@H]1CC[C@H](NC(=O)C2CC2)[C@@H](CO)O1)Nc1ccccc1 returned ARNT-TACC3 inh 16.6 and PglD DTNB -2.8.
`COc1ccc(C(=O)O)cc1S(N)(=O)=O` gave Vif inh 0.0, ARNT-TACC3 inh -4.1, Yeast UUG start 1.0, CAL PDZ FP-1 32.4*, PglD DTNB -0.8 and CAL PDZ FP-2 -2.0.
For CNS(=O)(=O)c1cc(C(=O)O)ccc1OC the results were Vif inh -0.4, ARNT-TACC3 inh -1.2 and CAL PDZ FP-1 -2.1.
`Cc1nc(N)sc1C(=O)N/N=C/c1ccc([N+](=O)[O-])cc1` gave Vif inh 1.6, Yeast UUG start 0.2 and PglD DTNB -4.2.
`COc1cc(/C=N\NC(=O)c2sc(N)nc2C)cc(OC)c1OC` gave Vif inh 28.5, ARNT-TACC3 inh 49.0*, Yeast UUG start -18.4, CAL PDZ FP-1 4.5, PglD DTNB 0.7 and CAL PDZ FP-2 -2.5.
`C=C1CCCC2OC(CC3=CC4/C(C)=C/CC(C)CC(/C=C(\C)C(O)C5CC(O)C(O)C(CCC(O)/C=C/C(C)=C/CCC6=NCCC(C3)C64C)O5)OC(=O)CC3OC(C(O)C1)C(O)C3O)CC(O)C2O` (stereo not drawn) gave Vif inh 118.2*, Yeast UUG start 18.6 and PglD DTNB 1.4.
`CC(C)C[C@H](NC(=O)N1CCN(c2ccccc2)CC1)C(=O)O` gave Vif inh -0.5, ARNT-TACC3 inh -2.0, Yeast UUG start -8.5, CAL PDZ FP-1 7.3, PglD DTNB -3.7 and CAL PDZ FP-2 -1.8.
`Cc1ccccc1C(=O)NC(CC(C)C)C(=O)N1CCN(c2ccccc2)CC1` (stereo not drawn) gave Vif inh -9.8, ARNT-TACC3 inh 3.7, Yeast UUG start -17.0, CAL PDZ FP-1 34.5*, PglD DTNB 1.9 and CAL PDZ FP-2 -0.6.
Screening CCNC(=O)C[C@@H]1CC[C@@H]2[C@@H](COc3ccc(NC(=O)NC(C)C)cc3C(=O)N2C)O1 returned Yeast UUG start -7.9 and PglD DTNB -2.2.
For CNC(=O)C[C@H]1CC[C@H]2[C@@H](COc3ccc(NC(=O)C4CC4)cc3C(=O)N2C)O1 the results were ARNT-TACC3 inh -6.4, Yeast UUG start -5.6 and PglD DTNB 2.7.
Screening COc1ccc(NC(=O)N(C)C[C@@H]2Oc3ccc(NC(=O)C4CCCCC4)cc3CC(=O)N([C@H](C)CO)C[C@@H]2C)cc1 returned ARNT-TACC3 inh -3.1, Yeast UUG start -4.0 and PglD DTNB 6.0.
Screening Cc1ccc(C(=O)NC(=S)NNC(=O)CCN2CCOCC2)cc1 returned Vif inh -11.8, ARNT-TACC3 inh 39.6*, CAL PDZ FP-1 -4.9 and CAL PDZ FP-2 -2.3.
`COC(=O)/C(=C/Nc1ccc(O)cc1)[N+](=O)[O-]` gave Vif inh 1.9, ARNT-TACC3 inh 23.7*, Yeast UUG start -10.4, CAL PDZ FP-1 65.6*, PglD DTNB 0.7 and CAL PDZ FP-2 0.4.
Screening COc1ccc(C(=O)Nc2cccc([N+](=O)[O-])c2)cc1Br returned Vif inh 74.5*, ARNT-TACC3 inh -1.1, Yeast UUG start 2.6, CAL PDZ FP-1 -5.5, PglD DTNB -0.2 and CAL PDZ FP-2 0.2.
Screening COc1ccc(C(=O)Nc2ccc(OC)c([N+](=O)[O-])c2)cc1Br returned Vif inh -1.6, ARNT-TACC3 inh -2.1, Yeast UUG start 1.1, CAL PDZ FP-1 -3.5, PglD DTNB -2.6 and CAL PDZ FP-2 -1.6.
For COc1cccc(NC(=O)c2ccc3nsnc3c2)c1 the results were Vif inh 5.8, Yeast UUG start -3.6, CAL PDZ FP-1 49.0*, PglD DTNB 2.4 and CAL PDZ FP-2 -1.9.
COc1cc(C(=O)Nc2cccc(C(C)=O)c2)cc(OC)c1OC was read as Vif inh -2.5, ARNT-TACC3 inh 0.4 and CAL PDZ FP-2 0.3.
COc1cccc(NC(=O)c2cccc(C(=O)Nc3cccc(OC)c3)c2)c1 was read as Vif inh -0.1, ARNT-TACC3 inh -3.1, Yeast UUG start -18.3, CAL PDZ FP-1 0.8, PglD DTNB 8.4 and CAL PDZ FP-2 0.4.
`COc1cccc(OC)c1C(=O)Nc1cccc(C(C)=O)c1` gave Vif inh 20.7, ARNT-TACC3 inh -10.4, Yeast UUG start -8.7, CAL PDZ FP-1 53.0*, PglD DTNB 0.9 and CAL PDZ FP-2 -2.0.
CCCC(=O)Nc1ccc2c(c1)C(=O)N(C)[C@H]1CC[C@H](CC(=O)Nc3ccc(C)cc3)O[C@@H]1CO2 was read as ARNT-TACC3 inh -2.2, Yeast UUG start 7.5 and PglD DTNB -0.8.
CC(=O)N1[C@H](C(=O)NCc2ccccc2Cl)[C@@H](CO)[C@@H]2Cn3c(ccc(-c4ccncc4)c3=O)[C@@H]21 was read as ARNT-TACC3 inh 1.6, Yeast UUG start -6.4 and PglD DTNB 0.4.
`Cc1cc(N)n(-c2ccc(S(N)(=O)=O)cc2[N+](=O)[O-])n1` gave Vif inh -1.4, ARNT-TACC3 inh 1.3, CAL PDZ FP-1 76.1* and CAL PDZ FP-2 -1.1.
For CCC(=O)N(C)C[C@@H]1Oc2cc(C#CC3CCCCC3)ccc2S(=O)(=O)N([C@@H](C)CO)C[C@H]1C the results were ARNT-TACC3 inh 7.1, Yeast UUG start -5.8 and PglD DTNB -1.0.
O=C(O)CCN(Cc1ccccc1)S(=O)(=O)c1ccccc1Cl was read as Vif inh 0.9, ARNT-TACC3 inh -11.2, CAL PDZ FP-1 52.3* and CAL PDZ FP-2 -1.7.
O=C(O)CCN(Cc1ccccc1)S(=O)(=O)c1ccc(Cl)cc1F was read as Vif inh 4.7, ARNT-TACC3 inh -3.1, CAL PDZ FP-1 -0.7 and CAL PDZ FP-2 0.2.
COc1ccccc1C(=O)COC(=O)Cc1n[nH]c(=O)c2ccccc12 was read as Vif inh 5.9, ARNT-TACC3 inh 0.6, CAL PDZ FP-1 31.1* and CAL PDZ FP-2 -3.4.
`O=C(c1cc(-c2ccncc2)nc2ccccc12)N1CCN(Cc2ccccc2)CC1` gave Vif inh 50.6*, ARNT-TACC3 inh 0.9, Yeast UUG start -28.0, PglD DTNB 4.0 and CAL PDZ FP-2 -1.1.

Sorted by molecular weight (lowest first): part of the list above
Screening COc1ccc(C(=O)Nc2cccc([N+](=O)[O-])c2)cc1Br returned Vif inh 74.5*, ARNT-TACC3 inh -1.1, Yeast UUG start 2.6, CAL PDZ FP-1 -5.5, PglD DTNB -0.2 and CAL PDZ FP-2 0.2.
COc1ccccc1C(=O)COC(=O)Cc1n[nH]c(=O)c2ccccc12 was read as Vif inh 5.9, ARNT-TACC3 inh 0.6, CAL PDZ FP-1 31.1* and CAL PDZ FP-2 -3.4.
For Cc1ccc(C)c(S(=O)(=O)N2CCCOC2CNC(=O)C(=O)NCCc2ccco2)c1 (stereo not drawn) the results were Vif inh -3.0, ARNT-TACC3 inh -0.9, Yeast UUG start 3.4, CAL PDZ FP-1 68.8*, PglD DTNB -2.6 and CAL PDZ FP-2 1.0.

Assay outcomes as filed in PubChem BioAssay.
